Values of other authors in patent EP0692191A1, “UTILIZATION OF PHENYL COMPOUNDS FOR THE CONTROL OF PHYTOPARASITE NEMATODES” (UNIVERSIDAD DE LA LAGUNA, priority 1993, dated 1995).

Conditions: comparison values on the scale of Repeto; cited from earlier work

CdCl2
toxisches Potential pT50: 2,13
